{"sequences": {"note": "Protein sequences, listed by entry. Tags and fused reporters are not part of them.", "UniProt Q92993, whole entry, species assumed": "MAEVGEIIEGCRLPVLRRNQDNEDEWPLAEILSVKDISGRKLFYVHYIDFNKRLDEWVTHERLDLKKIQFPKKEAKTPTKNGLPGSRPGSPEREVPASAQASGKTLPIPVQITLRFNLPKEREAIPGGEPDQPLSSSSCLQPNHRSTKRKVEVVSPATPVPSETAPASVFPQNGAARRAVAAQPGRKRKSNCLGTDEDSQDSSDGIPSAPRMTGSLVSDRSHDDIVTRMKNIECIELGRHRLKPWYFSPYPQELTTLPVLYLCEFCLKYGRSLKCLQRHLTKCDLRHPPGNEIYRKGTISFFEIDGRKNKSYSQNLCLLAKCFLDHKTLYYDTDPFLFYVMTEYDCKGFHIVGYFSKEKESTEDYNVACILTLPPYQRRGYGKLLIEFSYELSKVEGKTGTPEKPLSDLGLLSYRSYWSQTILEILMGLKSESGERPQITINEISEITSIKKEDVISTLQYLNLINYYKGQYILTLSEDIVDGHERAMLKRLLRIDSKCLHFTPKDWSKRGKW"}, "source": "patent US20230265432A1", "about": "“METHODS AND COMPOSITIONS FOR TREATING ACUTE MYELOID LEUKEMIA” (Sanford Burnham Prebys Medical Discovery Institute, priority 2021, published 2023)", "origin": "cited, not measured here", "settings_in_all_cases": "cited from earlier work", "key": {"[1]": {"system": "BD2"}, "[2]": {"system": "BET proteins"}, "[3]": {"molecular_target": "Tip60 (Homo sapiens, UniProt Q92993)"}}, "data": [{"smiles": "COc1cc(OC)c2c(=O)[nH]c(-c3cc(C)c(OCCO)c(C)c3)nc2c1", "note": "[RVX-208]", "values": [{"measurement": "IC50", "setting": "[1]", "value": 510, "unit": "nM"}]}, {"smiles": "CCNC(=O)C[C@@H]1N=C(c2ccc(Cl)cc2)c2cc(OC)ccc2-n2c(C)nnc21", "note": "[I-BET-762]", "values": [{"measurement": "IC50", "setting": "[2]", "value": "~35", "unit": "nM"}]}, {"smiles": "CCCCCCCc1ccc(CCc2cccc(O)c2C(=O)O)cc1", "note": "[MG149]", "values": [{"measurement": "IC50", "setting": "[3]", "value": 74000, "unit": "nM"}]}]}
